The source of these data is PMC3097170 (The Journal of pharmacology and experimental therapeutics, 2011).

The chains behind the UniProt entries cited, without tags or fusion partners.
UniProt P42866, whole entry: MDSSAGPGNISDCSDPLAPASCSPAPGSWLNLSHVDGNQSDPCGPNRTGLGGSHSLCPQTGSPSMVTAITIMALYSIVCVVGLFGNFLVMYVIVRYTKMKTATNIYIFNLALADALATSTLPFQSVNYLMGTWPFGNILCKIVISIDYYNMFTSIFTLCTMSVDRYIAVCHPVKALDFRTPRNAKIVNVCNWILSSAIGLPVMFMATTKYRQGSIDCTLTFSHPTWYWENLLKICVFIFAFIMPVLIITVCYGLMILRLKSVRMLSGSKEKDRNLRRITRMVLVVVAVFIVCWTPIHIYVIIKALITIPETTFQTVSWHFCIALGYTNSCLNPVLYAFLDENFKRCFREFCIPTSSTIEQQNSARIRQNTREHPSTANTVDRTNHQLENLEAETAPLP

The target in assay [1] is T1, MOR (Mus musculus, UniProt P42866).
Assay [2] concerns the target T1, MOR. The note with it: 1 μM agonist, 30 minutes, cells expressing MOR alone.

The structures appear in SMILES notation.

For `CN1CC[C@]23c4c5ccc(O)c4O[C@H]2[C@@H](O)C=C[C@H]3[C@H]1C5` [Morphine, morphine], the “Emax (RFU)” value on MOR [1] is listed as 598 ± 36 RFU. Further, the “agonist-induced endocytosis of MOR” value at MOR [2] is “did not promote endocytosis”.
